Results: US20030220312A1, “Epoxy-steroidal aldosterone antagonist and calcium channel blocker combination therapy for treatment of cardiovascular disorders” (G.D. Searle & Co., priority 2000, published 2003)

Test: Thermogravimetry / DSC of eplerenone solvates (desolvation)
Type: physicochemical
Conditions: eplerenone solvate of the named solvent; extrapolated from final solvent weight loss step, thermogravimetric analysis at 10° C./minute under nitrogen purge
Method: Each sample (1-10 mg) was placed in an unsealed aluminum pan and heated at 10° C./minute. One or more endothermal events at lower temperatures were associated with enthalpy changes that occurred as solvent was lost from the solvate crystal lattice. The highest temperature endotherm or endotherms were associated with the melting/decomposition of Form L or Form H eplerenone.
Thermogravimetric analysis of solvates was performed using a TA Instruments TGA 2950 thermogravimetric analyzer. Samples were placed in an unsealed aluminum pan under nitrogen purge. Starting temperature was 25° C. with the temperature increased at a rate of about 10° C./minute.

Desolvation Temperature: 129 °C
Compound: CCCO [n-Propanol]
